# Values of other authors as cited in article PMC12555108, “In‐vitro Assessment of BCRP‐Mediated Efflux of Antiseizure Medications in Human Blood‐Brain Barrier Cell Model” (Journal of Biochemical and Molecular Toxicology, 2025).
# Parameters: method as in Johannessen, 2004; Patsalos, 2008; Lee, 2016
# Conditions: patients with epilepsy; ref Johannessen, 2004; Patsalos, 2008; Lee, 2016; cited from earlier work
compound,measurement,value
"Nc1nnc(-c2cccc(Cl)c2Cl)c(N)n1 [LTG, lamotrigine]",Therapeutic plasma concentration range,10 to 60 µM
